Drawing on ChEMBL document CHEMBL4049386, “Discovery of an Inhibitor of the Proteasome Subunit Rpn11” (J Med Chem, 2017), this text covers IC50 for 1 molecule.

By UniProt entry, the sequences of proteins in these tests, tags left out.
UniProt O00487, whole entry: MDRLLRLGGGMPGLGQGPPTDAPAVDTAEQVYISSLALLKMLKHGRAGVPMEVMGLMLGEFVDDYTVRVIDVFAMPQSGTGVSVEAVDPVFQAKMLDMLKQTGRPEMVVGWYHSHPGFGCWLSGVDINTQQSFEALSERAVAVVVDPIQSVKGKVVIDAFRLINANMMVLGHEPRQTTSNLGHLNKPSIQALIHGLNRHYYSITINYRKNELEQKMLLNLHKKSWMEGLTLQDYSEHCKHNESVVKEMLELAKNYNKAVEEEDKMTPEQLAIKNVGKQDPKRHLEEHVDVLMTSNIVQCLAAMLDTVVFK

pIC50: −log10 of the molar value.

Usually pIC50 stands for the negative decadic logarithm of the IC50, by convention in mol/L.

This test deals with 26S proteasome non-ATPase regulatory subunit 14 (Homo sapiens, UniProt O00487). Description: Inhibition of 26S proteasome regulatory subunit RPN11 deubiquitinating activity in beta5 inhibitor MG132 pretreated human HeLa cells expressing UbG76V-GFP assessed as reduction in UbG76V-GFP degradation rate by fluorescence microscopic method. It is filed as cell-based.

For the molecule `CNC(=O)c1cnc2c(SSc3cccc4cc(C(=O)NC)cnc34)cccc2c1`, the negative logarithm of the IC50 (pIC50) was 5.59.
